# Assays:
# By UniProt entry, the sequences of proteins in these tests, tags left out. Where a name states a change or a piece, a line headed by the entry shows the natural chain unless it says otherwise.
# UniProt Q9UQL6: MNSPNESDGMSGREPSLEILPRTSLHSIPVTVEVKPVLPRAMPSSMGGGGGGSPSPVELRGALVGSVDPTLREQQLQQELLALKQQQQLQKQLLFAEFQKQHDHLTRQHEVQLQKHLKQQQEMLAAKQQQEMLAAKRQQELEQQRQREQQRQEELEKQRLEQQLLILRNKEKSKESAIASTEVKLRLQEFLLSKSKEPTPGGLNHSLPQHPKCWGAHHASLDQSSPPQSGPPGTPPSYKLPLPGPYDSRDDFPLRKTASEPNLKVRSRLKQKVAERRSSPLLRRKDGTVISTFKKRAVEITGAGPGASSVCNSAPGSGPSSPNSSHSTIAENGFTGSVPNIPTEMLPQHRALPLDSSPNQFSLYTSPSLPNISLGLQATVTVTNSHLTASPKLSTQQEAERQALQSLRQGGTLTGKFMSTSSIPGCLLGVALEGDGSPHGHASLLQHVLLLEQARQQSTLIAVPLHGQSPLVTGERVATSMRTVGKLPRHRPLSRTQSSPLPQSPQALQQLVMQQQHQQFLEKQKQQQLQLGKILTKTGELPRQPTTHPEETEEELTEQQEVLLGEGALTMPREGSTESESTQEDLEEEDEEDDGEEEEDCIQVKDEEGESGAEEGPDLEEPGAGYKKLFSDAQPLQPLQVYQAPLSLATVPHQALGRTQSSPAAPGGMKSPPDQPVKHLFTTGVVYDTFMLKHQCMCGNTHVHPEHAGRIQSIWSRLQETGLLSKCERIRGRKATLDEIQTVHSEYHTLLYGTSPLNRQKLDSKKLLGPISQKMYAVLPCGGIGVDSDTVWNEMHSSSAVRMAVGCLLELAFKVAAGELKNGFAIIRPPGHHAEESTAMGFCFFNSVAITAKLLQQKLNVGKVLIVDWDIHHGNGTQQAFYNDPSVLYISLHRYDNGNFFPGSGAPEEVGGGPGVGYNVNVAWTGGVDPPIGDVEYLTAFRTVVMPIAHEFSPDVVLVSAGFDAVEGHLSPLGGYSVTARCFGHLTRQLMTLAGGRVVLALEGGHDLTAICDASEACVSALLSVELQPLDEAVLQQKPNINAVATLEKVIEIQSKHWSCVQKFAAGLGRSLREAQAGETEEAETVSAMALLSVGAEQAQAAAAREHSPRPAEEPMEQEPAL
# UniProt P56524: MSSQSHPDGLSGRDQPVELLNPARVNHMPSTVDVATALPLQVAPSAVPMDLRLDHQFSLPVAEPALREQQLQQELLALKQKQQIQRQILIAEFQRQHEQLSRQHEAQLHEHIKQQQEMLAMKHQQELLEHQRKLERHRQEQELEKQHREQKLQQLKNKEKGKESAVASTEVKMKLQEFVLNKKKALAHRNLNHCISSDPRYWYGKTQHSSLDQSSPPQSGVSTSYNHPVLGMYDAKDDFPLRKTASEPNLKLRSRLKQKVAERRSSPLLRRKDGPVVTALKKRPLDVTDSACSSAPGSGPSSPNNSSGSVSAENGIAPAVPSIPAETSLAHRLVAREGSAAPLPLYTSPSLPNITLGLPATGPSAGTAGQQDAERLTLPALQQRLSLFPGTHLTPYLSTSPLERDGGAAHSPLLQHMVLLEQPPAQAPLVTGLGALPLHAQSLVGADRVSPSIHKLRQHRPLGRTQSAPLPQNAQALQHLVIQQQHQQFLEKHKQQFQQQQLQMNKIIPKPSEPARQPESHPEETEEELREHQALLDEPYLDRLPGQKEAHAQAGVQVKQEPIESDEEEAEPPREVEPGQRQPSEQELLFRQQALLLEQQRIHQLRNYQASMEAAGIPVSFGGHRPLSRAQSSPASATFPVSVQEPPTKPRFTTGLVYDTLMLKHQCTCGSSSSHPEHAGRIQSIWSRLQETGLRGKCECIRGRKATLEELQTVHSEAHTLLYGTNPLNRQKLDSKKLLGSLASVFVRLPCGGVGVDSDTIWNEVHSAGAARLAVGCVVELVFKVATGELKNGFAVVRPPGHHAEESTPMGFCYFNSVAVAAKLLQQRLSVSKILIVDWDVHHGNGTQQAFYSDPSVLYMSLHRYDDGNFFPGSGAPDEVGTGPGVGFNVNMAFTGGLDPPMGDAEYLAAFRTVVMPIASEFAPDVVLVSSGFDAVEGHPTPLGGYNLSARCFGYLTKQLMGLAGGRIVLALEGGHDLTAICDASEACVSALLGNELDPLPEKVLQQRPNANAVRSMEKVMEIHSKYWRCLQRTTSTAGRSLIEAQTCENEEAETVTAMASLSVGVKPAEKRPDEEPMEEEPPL
# [1] = tested on: HEK293 cells that express an HTT exon containing 17 glutamine repeats (HTT17Q-mCherry); test: Huntington's Disease (HD) model: protein aggregates (puncta) per cell in HEK293H cells transfected with HTT17Q-mCherry; conditions: Example 1, FIG. 2; 10 μM compound, 6 h
# HDAC 5 = HDAC 5 (Homo sapiens, UniProt Q9UQL6); test: HDAC 5 assay (BPS Bioscience kit)
# HDAC 6 = target: T1, HDAC 6 (Homo sapiens, UniProt Q9UBN7); test: HDAC 6 assay (BPS Bioscience kit); conditions: for inhibition of HDAC6: at 0.2 μM concentration; for Percent inhibition HDAC 6: footnotes b,c: tested at 200 nM, 100 nM, variable, average of 2 independent measurements
# T1 sequence (Q9UBN7 1-1215): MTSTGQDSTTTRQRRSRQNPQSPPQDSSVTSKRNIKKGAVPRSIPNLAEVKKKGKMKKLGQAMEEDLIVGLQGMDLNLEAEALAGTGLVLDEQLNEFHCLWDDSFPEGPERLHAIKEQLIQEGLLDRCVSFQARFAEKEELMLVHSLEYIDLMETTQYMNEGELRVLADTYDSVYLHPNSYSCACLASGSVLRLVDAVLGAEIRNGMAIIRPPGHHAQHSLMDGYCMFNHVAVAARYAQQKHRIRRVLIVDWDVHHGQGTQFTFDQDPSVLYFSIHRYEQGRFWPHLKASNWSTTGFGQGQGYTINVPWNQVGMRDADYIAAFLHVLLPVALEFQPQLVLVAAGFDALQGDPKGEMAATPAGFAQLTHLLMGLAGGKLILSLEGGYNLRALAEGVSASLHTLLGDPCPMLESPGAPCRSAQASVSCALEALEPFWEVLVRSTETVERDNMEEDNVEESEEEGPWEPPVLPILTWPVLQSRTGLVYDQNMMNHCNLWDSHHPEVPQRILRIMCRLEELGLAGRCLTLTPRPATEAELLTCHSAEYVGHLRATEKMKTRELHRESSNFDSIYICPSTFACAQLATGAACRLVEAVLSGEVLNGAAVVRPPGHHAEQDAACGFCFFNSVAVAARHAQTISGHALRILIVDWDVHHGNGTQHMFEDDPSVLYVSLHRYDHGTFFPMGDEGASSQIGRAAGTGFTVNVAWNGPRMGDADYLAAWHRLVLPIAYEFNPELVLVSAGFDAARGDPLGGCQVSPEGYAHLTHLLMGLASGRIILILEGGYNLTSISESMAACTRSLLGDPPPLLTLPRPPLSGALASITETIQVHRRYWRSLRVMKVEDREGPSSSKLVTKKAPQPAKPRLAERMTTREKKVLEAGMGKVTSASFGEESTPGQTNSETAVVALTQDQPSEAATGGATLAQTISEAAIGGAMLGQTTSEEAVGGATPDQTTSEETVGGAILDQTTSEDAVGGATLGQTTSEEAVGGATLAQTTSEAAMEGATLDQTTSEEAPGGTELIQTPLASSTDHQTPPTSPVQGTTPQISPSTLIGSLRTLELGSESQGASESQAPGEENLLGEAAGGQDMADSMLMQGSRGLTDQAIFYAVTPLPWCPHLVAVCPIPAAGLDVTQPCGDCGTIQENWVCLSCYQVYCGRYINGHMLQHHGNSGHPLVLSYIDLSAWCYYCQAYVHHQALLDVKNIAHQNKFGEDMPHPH
# HDAC 7 = target: T2, HDAC 7 (Homo sapiens, UniProt Q8WUI4); test: HDAC 7 assay (BPS Bioscience kit)
# T2 sequence (Q8WUI4 1-952): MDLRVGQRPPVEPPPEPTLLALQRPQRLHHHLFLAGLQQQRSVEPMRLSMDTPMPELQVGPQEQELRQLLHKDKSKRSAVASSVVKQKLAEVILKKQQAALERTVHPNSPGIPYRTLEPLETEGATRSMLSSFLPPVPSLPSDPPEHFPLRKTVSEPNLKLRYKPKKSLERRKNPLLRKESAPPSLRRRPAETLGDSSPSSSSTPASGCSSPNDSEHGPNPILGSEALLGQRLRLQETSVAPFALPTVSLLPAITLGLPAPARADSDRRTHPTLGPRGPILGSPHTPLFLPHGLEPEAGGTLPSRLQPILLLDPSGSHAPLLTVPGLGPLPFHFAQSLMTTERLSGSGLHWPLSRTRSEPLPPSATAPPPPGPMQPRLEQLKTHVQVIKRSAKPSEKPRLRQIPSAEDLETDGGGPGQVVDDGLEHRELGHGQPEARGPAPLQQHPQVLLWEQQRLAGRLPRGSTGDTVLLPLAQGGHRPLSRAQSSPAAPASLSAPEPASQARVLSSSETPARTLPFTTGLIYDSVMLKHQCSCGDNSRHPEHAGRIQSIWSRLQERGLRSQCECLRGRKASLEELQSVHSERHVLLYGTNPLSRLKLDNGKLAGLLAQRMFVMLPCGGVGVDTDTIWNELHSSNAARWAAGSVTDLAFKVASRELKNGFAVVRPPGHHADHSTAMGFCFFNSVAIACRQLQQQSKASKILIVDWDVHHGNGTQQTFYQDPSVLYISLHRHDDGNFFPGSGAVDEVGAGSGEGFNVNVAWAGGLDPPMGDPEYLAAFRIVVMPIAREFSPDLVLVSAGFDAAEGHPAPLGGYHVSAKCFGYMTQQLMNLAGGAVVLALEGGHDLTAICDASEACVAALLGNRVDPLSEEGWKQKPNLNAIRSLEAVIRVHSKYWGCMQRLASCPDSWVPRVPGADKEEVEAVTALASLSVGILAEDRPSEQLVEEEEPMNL
# HDAC 8 = target: T3, HDAC 8 (Homo sapiens, UniProt Q9BY41); test: HDAC 8 assay (BPS Bioscience kit); conditions: footnotes a,c: tested at 1 uM; 100 nM; average of 2 independent measurements
# T3 sequence (Q9BY41 1-377): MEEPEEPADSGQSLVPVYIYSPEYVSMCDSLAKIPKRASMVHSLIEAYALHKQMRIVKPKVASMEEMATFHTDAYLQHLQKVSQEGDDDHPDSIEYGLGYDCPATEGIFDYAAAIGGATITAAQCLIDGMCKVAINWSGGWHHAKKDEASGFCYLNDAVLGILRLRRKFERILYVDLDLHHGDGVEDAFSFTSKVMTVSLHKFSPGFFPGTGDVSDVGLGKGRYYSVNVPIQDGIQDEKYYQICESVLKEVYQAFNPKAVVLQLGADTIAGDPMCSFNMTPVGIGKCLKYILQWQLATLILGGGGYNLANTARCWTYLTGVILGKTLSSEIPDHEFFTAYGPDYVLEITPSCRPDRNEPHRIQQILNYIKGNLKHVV
# [2] = target: HDAC 4 human recombinant enzyme (Homo sapiens, UniProt P56524); test: HDAC 4 assay (BPS Bioscience kit); conditions: read-out: Percent inhibition HDAC 4
Percent inhibition HDAC 5 (HDAC 5; Compound tested at 200 nM),inhibition of HDAC6 (HDAC 6),Percent inhibition HDAC 6 (HDAC 6) [%^d],Percent inhibition HDAC 7 (HDAC 7; Compound tested at 100 nM),Percent inhibition HDAC 8 (HDAC 8) [%^e],inhibition at 1 µM [2] [%],inhibition at 0.2 µM (HDAC 5; read-out: Percent inhibition HDAC 5) [%],inhibition at 0.1 µM (HDAC 7; read-out: Percent inhibition HDAC 7) [%],inhibition at 1 µM (HDAC 7; read-out: inhibition of HDAC 7) [%],Compound,Effect on aggregate suppression compared to the MAL1-271 positive control [1],inhibition at 0.1 µM (HDAC 6; read-out: Percent Inhibition) [%]
NIA,not inhibited,10,NIA,46,5,,,,"CCOC(=O)C1=CN(CCCC(=O)NO)S(=O)(=O)NC1c1ccc(Cl)cc1Cl (stereo not shown) [Compound 12g, Ethyl 3-(2,4-dichlorophenyl)-6-(4-(hydroxyamino)-4-oxobutyl)-3,6-dihydro-2H-1,2,6-thiadiazine-4-carboxylate 1,1-dioxide]",slightly greater effect,
,not inhibited,20,,58,23,19,40,40,"CCOC(=O)C1=CN(Cc2ccc(C(=O)NO)cc2)S(=O)(=O)NC1c1ccc(Cl)cc1Cl (stereo not shown) [Compound 12h, Ethyl 3-(2,4-dichlorophenyl)-6-(4-(hydroxycarbamoyl)benzyl)-3,6-dihydro-2H-1,2,6-thiadiazine-4-carboxylate 1,1-dioxide]",less effective,
,,,,,,,,,"O=C(CCCCCCC(=O)Nc1ccccc1)NO [SAHA, Vorinostat, reference compound]",,82

# Source: patent publication US12600705B2, “Heat shock protein modulators and anti-Huntington disease therapeutic agents” (UNIVERSITY OF PITTSBURGH-OF THE COMMONWEALTH SYSTEM OF …, priority 2020, dated 2026)
